Laboratory results as given in patent publication US12521389B2, “Therapeutic approach to lung disease” (The Regents of the University of California, priority 2019, dated 2026).
Entries after “also recorded” stand apart in the source; their conditions may differ.

System: wild-type mouse lung
Assay: Lung wet-to-dry ratio after intranasal CGRP administration in wild type mice
Type: in vivo
Conditions: wild type pups; intranasal 10 ul 1 ng/ul at P10, P12, P14, P16; measured at P18; vs saline
Source text: Next, molecules that mediate the impact of PNEC hyperplasia on NEHI symptoms were investigated using the NEHI mouse model. As PNECs are known for their production of highly bioactive neuropeptides, neurotransmitters and amines, it is reasoned that PNEC products could be potential mediators. It has been reported that CGRP is a key neuropeptide secreted by PNECs, can act as a vasodilator and can induce edema when injected in the paw.
Each lung was removed from sacrificed mouse right after euthanasia. Excessive blood was removed by kimwipe and wet weight mw was measured right after dissection. The lung was then placed on the foil at 70° C. for 24 hours. Dry weight […] was then measured by reweighing the dried lung. Wet-to-dry ratio was calculated as: W/D ratio=mw/md.
BIBN-4096 (Fisher Scientific #45-611-0) was dissolved in 100% DMSO (Sigma-Aldrich D2650) and further diluted to working solution with saline before use. 10 ul of 0.3 mg/ml BIBN-4096 was intranasally administrated to pups at P10, P12, P14, P16 and P18. CGRP (Sigma-Aldrich C0292) was dissolved and diluted with saline to reach the working concentration. 10 ul 1 ng/ul CGRP was intranasally administrated to pups at P10, P12, P14 and P16.

For “CGRP: calcitonin gene-related peptide, neuropeptide secreted by PNECs (Sigma-Aldrich C0292) (ACDTATCVTHRLAGLLSRSGGVVKNNFVPTNVGSKAF; Calcitonin gene-related peptide 1; UniProt P06881 83-119, looked up)”, the “Lung wet-to-dry ratio (pulmonary edema)” value was “increase of fluid in the lung; also recorded: significant increase”.
